The chains behind the UniProt entries cited, without tags or fusion partners. Where a name states a change or a piece, a line headed by the entry shows the natural chain unless it says otherwise.
UniProt P13661: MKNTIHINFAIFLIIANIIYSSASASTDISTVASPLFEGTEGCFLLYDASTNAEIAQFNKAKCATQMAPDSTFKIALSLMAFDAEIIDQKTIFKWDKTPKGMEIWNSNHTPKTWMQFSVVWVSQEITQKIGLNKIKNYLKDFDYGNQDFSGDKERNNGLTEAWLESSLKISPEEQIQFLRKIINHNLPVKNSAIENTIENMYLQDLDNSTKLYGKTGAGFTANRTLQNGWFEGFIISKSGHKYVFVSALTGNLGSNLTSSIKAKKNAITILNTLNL

In ChEMBL document CHEMBL1151538, “Rearrangement of unsymmetrical azetidinone disulfides to 2-(heterocyclylthiomethyl)penams, a synthetic approach to new -lactamase inhibitors” (Bioorg Med Chem Lett, 1993):

Target: Beta-lactamase OXA-1 (Escherichia coli, UniProt P13661)
Experiment: Inhibitory activity against Escherichia coli HA209 Class-V OXA-1 type beta-lactamase enzyme

**Q.** How did the pIC50 turn out when C[C@@]1(CSc2nc3ccccc3o2)S[C@@H]2[C@H](Br)C(=O)N2[C@H]1C(=O)O was run?
**A.** 5.63

pIC50: −log10 of the molar value.
